This note sets out measurements from ChEMBL document CHEMBL5346881 (Eur J Med Chem, 2023).

For experiment [1], the system named is PC-3. The experiment in a line: Antitumor activity against human PC-3 cells xenografted in CB17 SCID mouse assessed as tumor inhibition at 18 mg/kg, ip administered as single dose measured after 21 days. To be noted: time 21 day. A general note: Xenograft models place foreign cells or tissue in a host animal.
Experiment [2] concerns SK-OV-3. In words: Antitumor activity against human SK-OV-3 cells xenografted in CB17 SCID mouse assessed as reduction in tumor volume at 18 mg/kg, ip administered as single dose measured after 11 days (reference value: 790 +/- 65.6 mm3). The settings on record: time 11 day.
In experiment [3] the test system is SK-OV-3. In words: Antitumor activity against human SK-OV-3 cells xenografted in CB17 SCID mouse assessed as tumor inhibition at 18 mg/kg, ip administered as single dose measured after 11 days. To be noted: time 11 day.
In experiment [4] the test system is MCF7. The experiment in a line: Growth inhibition of human MCF7 cells incubated for 48 hrs by MTT assay. The experiment is classed as functional.
Experiment [5] can be described thus: Growth inhibition of human UWB1289 cells harboring BRCA1 incubated for 48 hrs by MTT assay.
Experiment [6] concerns MRC5. The experiment in a line: Antiproliferative activity against human MRC5 cells assessed inhibition of cell growth incubated for 48 hrs by MTT assay. In general terms: Tetrazolium assays rely on reduction of a dye to a coloured formazan, in cell work by metabolically active cells.
The subject of experiment [7] is PC-3. In words: Antitumor activity against human PC-3 cells xenografted in CB17 SCID mouse assessed as reduction in tumor volume at 18 mg/kg, ip administered as single dose measured after 21 days (reference value: 683 +/- 47.3 mm3). The settings on record: time 21 day.
The test system of experiment [8] is SK-OV-3. In words: Growth inhibition of human SK-OV-3 cells incubated for 48 hrs by MTT assay. The experiment is classed as functional.
Experiment [9] has as its system PC-3. In words: Growth inhibition of human PC-3 cells incubated for 48 hrs by MTT assay. The experiment is classed as functional.
The subject of experiment [10] is PC-3. The experiment in a line: Antiproliferative activity against human PC-3 cells assessed inhibition of cell growth incubated for 48 hrs by MTT assay.
Experiment [11] in a line: Antiproliferative activity against human UWB1289 cells harboring BRCA1 assessed inhibition of cell growth incubated for 48 hrs by MTT assay.
For experiment [12], the system named is SK-OV-3. In words: Antiproliferative activity against human SK-OV-3 cells assessed inhibition of cell growth incubated for 48 hrs by MTT assay.
In experiment [13] the test system is MRC5. The experiment in a line: Growth inhibition of human MRC5 cells incubated for 48 hrs by MTT assay. The experiment is classed as functional.
Experiment [14] concerns MCF7. The experiment in a line: Antiproliferative activity against human MCF7 cells assessed inhibition of cell growth incubated for 48 hrs by MTT assay.

For `O=C(O)[C@@H](O)COc1ccc(N(CCCl)CCCl)cc1`, the TGI in [1] was 55%; in experiment [3], 19%; in [4] it was greater than 100 µM; in [5] it was greater than 100 µM; in experiment [8] it was greater than 100 µM; in experiment [9], greater than 100 µM. Also, in experiment [13], the TGI is greater than 100 µM. Further, the Activity was determined as 677 mm3 in [2] and 368 mm3 in [7]. Also, the GI50 is greater than 100 µM in experiment [4]; greater than 100 µM in experiment [5]; 24 µM in [8]; greater than 100 µM in [9]; greater than 100 µM in experiment [13]. In addition, the IC50 in [6], in experiment [10], in experiment [11], in [12] and in experiment [14] was greater than 100 µM in each case.

The term GI50 denotes the concentration that inhibits growth by half. The low end stands for greater sensitivity of the cells, the high end for lower sensitivity of the cells. A word on the IC50: it is the concentration at which inhibition is half-maximal.
